Data reported in patent US9701670B2, “Pyrazolyl-ureas as kinase inhibitors” (RESPIVERT LIMITED, priority 2013, dated 2017).

Sequences of proteins named here, by UniProt entry; tags and fusion partners are left off.
UniProt Q16539, whole entry: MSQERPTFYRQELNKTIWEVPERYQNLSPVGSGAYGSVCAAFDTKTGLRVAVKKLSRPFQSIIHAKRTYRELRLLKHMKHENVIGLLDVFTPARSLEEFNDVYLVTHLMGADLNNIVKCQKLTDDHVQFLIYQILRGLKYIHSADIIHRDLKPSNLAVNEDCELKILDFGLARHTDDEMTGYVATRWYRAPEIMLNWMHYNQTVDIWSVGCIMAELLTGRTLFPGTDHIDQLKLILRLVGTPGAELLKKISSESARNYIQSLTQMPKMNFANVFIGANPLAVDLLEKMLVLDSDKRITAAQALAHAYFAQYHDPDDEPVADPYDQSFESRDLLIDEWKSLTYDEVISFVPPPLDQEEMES

Molecular target: p38 MAPKα isoform (MAPK14) (Homo sapiens (Human), UniProt Q16539)
Assay: p38 MAPKα enzyme inhibition (FRET, Z-LYTE), Method 1
Type: biochemical
Conditions: Method 1 (Table 4a1)
Experimental: The enzyme inhibitory activities of compounds disclosed herein are determined by FRET using synthetic peptides labelled with both donor and acceptor fluorophores (Z-LYTE, Invitrogen Ltd., Paisley, UK).
The inhibitory activities of test compounds against the p38 MAPKα isoform (MAPK14: Invitrogen), are evaluated indirectly by determining the level of activation/phosphorylation of the down-stream molecule, MAPKAP-K2. The p38 MAPKα protein (80 ng/mL, 2.5 μL) is mixed with the test compound (2.5 μL of either 4 μg/mL, 0.4 μg/mL, 0.04 μg/mL or 0.004 μg/mL) for 2 hr at RT. […] The mixture is incubated for 1 hr at RT. Development reagent (protease, 5 μL) is added for 1 hr prior to detection in a fluorescence microplate reader (Varioskan® Flash, ThermoFisher Scientific).
In all cases, the site-specific protease cleaves non-phosphorylated peptide only and eliminates the FRET signal. Phosphorylation levels of each reaction are calculated using the ratio of coumarin emission (donor) over fluorescein emission (acceptor), for which high ratios indicate high phosphorylation and low ratios indicate low phosphorylation levels.

IC50: 2 nM
Structure (SMILES): Cc1ccc(-n2nc(C(C)C)cc2NC(=O)Nc2ccc(Oc3ccnc(Nc4cccc(C(=O)NCCN5CCOCC5)c4)n3)c3ccccc23)cc1 [Example 19, 3-((4-((4-(3-(3-isopropyl-1-(p-tolyl)-1H-pyrazol-5-yl)ureido)naphthalen-1-yl)oxy)pyrimidin-2-yl)amino)-N-(2-morpholinoethyl)benzamide]
